ClpP mod = qHTS Assay for Activators of ClpP. ATP-dependent Clp protease proteolytic subunit (Bacillus subtilis (strain 168)), P80244. purified B. subtilis ClpP, FRET peptide cleavage, 20 min. Potency, µM (top dose mostly 57.5 µM), without a hit: at the highest dose activity change, negative = active. 1.9% of 340,000 active. AID 651965, 2013; active = well fitted falling curve with a large enough effect; inconclusive = small, poorly fitted or top-dose-only effect; inactive = no such curve, though single readings can be large or run the other way; also: potency is read from the fitted curve at half-maximal effect; the source files actives as falling curves though it sought activators and does not explain the sign; nearly all actives have a fitted effect of over 65% in size
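FRET quenching reversal measured ClpP activation: 10 microg/mL B. subtilis ClpP at pH 8 with the FRET-FV decapeptide, read at 430 nm after 320 nm excitation. The 20-min minus 0-min signal was scaled between DMSO/no-enzyme wells and ADEP (5.8 microM final).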
A549 viability = counter-screen for Nrf2 inhibitors: cytotoxicity in A549 cells. A549 ARE-Fluc cells, CellTiter-Fluor viability, 18-24 h. AID 504648. 0.16% of 390,000 active. Potency, µM (doses to about 46 µM), inactives show at the top dose activity change, negative = cytotoxicity, actives largely listed as inhibitors; also: potency is read from the fitted curve at half-maximal effect; % is scaled to controls: 0 for no effect and ±100 for the full control effect
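A549 ARE-Fluc cells in 5% FBS OPTI-MEM, 5000 cells/well, rested 2 h then exposed to compounds in concentration-response for 18-24 h at 37 °C. Viability by CellTiter-Fluor fluorescence (Ex 405/Em 525) after 30 min; luciferase luminescence (BugLite, 15 min, RT) read afterwards.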
Nrf2 inh = blocks Nrf2 signaling; AID 504444; A549 ARE-Fluc reporter, luciferase luminescence, 18-24 h; Potency, µM (top dose mostly 46 µM), without a hit: top-dose activity change, negative = inhibition, most hits filed as inhibitors; 2.1% of 360,000 active; also: potency is read from the fitted curve at half-maximal effect; % is scaled to controls: 0 for no effect and ±100 for the full control effect; nearly all actives have a fitted effect of over 60% in size
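Concentration-response testing used A549 ARE_Fluc cells at 5000 cells/well. Following an 18-24 h compound incubation, viability was read by fluorescence (Ex 405/Em 525) and luciferase output by luminescence.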
Nrf2 ARE act = activators of Nrf2 (ARE) signaling; AREc32 ARE-luciferase reporter (MCF7-derived line), luminescence, 24 h; Potency, µM (top dose mostly 46.1 µM), inactives show at the highest dose activation, hits mostly activators; 0.31% of 410,000 active; AID 624171; also: potency is read from the fitted curve at half-maximal effect; % of control where 0% means no effect; nearly all actives have a fitted effect of over 65% in size
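AREc32_Fluc, 1000 cells/well, OPTI-MEM + 5% FBS, o/n 37 deg C 5% CO2; 23 nL cpd by pin tool, 24 hr; Steady-Glo 30 min RT, luminescence.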
TCR act = activates T cell receptor signaling. Potency, µM (titrated, usually from 9.22 µM), inactives show at the top dose activation of IL-2 secretion, actives largely listed as activators. primary human leukocytes, anti-CD3, IL-2 HTRF, 48 h. 330,000 tested, under 10 active. AID 504894; also: % of control where 0% means no effect
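Primary human leukocytes receive a-CD3 beads and test compound and are incubated 48 hr. Secreted IL-2 is then assayed by HTRF, measuring 665nm acceptor emission after 320nm excitation of the europium donor.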
miR-21 reporter = raises the signal of a miR-21 reporter | HeLa miR-21 FLuc reporter, luciferase, 48 h | Potency, µM (doses to about 38.3 µM), without a hit: at the top dose reporter change, positive = more light | 340,000 tested, under 10 active | AID 2288; active = well fitted rising curve with a large enough effect; inconclusive = small, poorly fitted or top-dose-only effect; inactive = no such curve, though single readings can be large or run the other way;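 note: % of control where 0% means no effect; miR-21 action dims this reporter so a rising signal means less miR-21 action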
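Compounds were titrated across several concentrations (up to approximately 40 uM) and incubated 48 hours with HeLa miR-21-FLuc reporter cells (miR-21 target sequence downstream of FLuc, endogenous miR-21). Readout was firefly luciferase luminescence after lytic detection reagent.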
The depositor's hits bear a star; ? = inconclusive; nt = no result given; [ ] = remark or other dose. Shown are actives, neighbours in structure and some others; about 3.7% of the full set was active somewhere. Unless noted, calls follow the shape of the dose curve; as a rule, active = well fitted curve in the direction sought with a large enough effect; inconclusive = small, poorly fitted or top-dose-only effect, or another doubt; inactive = no such curve, though single readings can be large; an effect the other way counts as inactive or inconclusive.

SMILES | ClpP mod | A549 viability | Nrf2 inh | Nrf2 ARE act | TCR act | miR-21 reporter
CCc1nc(NC2CCCCC2)c(C#N)c2c1COC(C)(C)C2 | 1.1% | 18.6% | nt | -0.3% | -5.0% | 0.8%
CCCc1nc(NC2CCCCC2)c(C#N)c2c1COC(C)(C)C2 | 35.5µM* | 9.6% | -8.1% | -1.1% | -22.6% | 2.7%
CC(C)c1[nH]c(=O)c(C#N)c2c1COC(C)(C)C2 | 31.6µM* | 2.3% | 3.3% | -0.8% | -2.1% | -7.6%
CN1CCN(C(=O)C2=C[C@H](c3csc4ccccc34)C[C@H](OCc3ccc(CO)cc3)O2)CC1 | -1.5% | -3.2% | 1.6% | -1.1% | -2.1% | -3.0%
C#Cc1ccc([C@H]2C=C(C(=O)N3CCN(Cc4ccccc4)CC3)O[C@@H](OCc3ccc(CO)cc3)C2)cc1 | -5.7% | -13.7% | ? | 6.7% | 2.6% | 3.8%
O=C(C1=C[C@@H](c2ccc(Br)cc2)C[C@@H](OCc2ccc(CO)cc2)O1)N1CCN(Cc2ccccc2)CC1 | -2.7% | ? | 20.6µM* | -3.4% | -15.2% | ?
O=C(C1=C[C@H](c2csc3ccccc23)C[C@H](OCc2ccc(CO)cc2)O1)N1CCCCCCC1 | -2.4% | -19.0% | 23.1µM* | 0.8% | -7.2% | nt
O=C(Nc1ccccc1)C1=C[C@@H](c2ccc(Br)cc2)C[C@@H](OCc2ccc(CO)cc2)O1 | -4.4% | -11.4% | 18.4µM* | 6.9% | 2.8% | -7.1%
O=C(C1=C[C@@H](c2ccc(C(F)(F)F)cc2)C[C@@H](OCc2ccc(CO)cc2)O1)N1CCN(Cc2ccc3c(c2)OCO3)CC1 | -0.8% | -21.6% | 16.4µM* | -0.4% | 1.1% | ?
Cc1nn(C(=O)COc2ccccc2Br)c(C)c1Sc1ccccc1 | 1.1% | 0.7% | 6.6% | 0.2% | nt | -9.4%
CC(=O)c1c(C(C)=O)c(C)n(-c2nc(-c3ccc(C)c(C)c3)c(C)s2)c1C | 2.1% | -2.8% | 13µM* | 0.1% | -2.4% | -9.0%
O=C(Cc1ccc(Br)cc1)N/N=C/c1cccnc1 | 0.6% | 5.7% | -16.8% | 0.5% | -5.6% | -4.1%
O=C(CC1SC(=Nc2cccc3ccccc23)N(Cc2ccccn2)C1=O)Nc1ccccc1Br (centres undefined) | -4.0% | -18.5% | 5.17µM* | 3.9% | -3.0% | 22.7%
Cc1ccccc1N=C1SC(CC(=O)Nc2ccc3ccccc3c2)C(=O)N1Cc1ccccn1 (centres undefined) | -1.2% | -28.8% | ? | 4.8% | 7.1% | ?
Cc1cc(C(=O)N2CCCC(C(=O)c3cccc(C(F)(F)F)c3)C2)n[nH]1 (centres undefined) | -3.7% | -16.3% | 18.4µM* | 0.3% | 5.7% | -4.6%
CN(CC(=O)Nc1ccc(F)c(F)c1F)C(=O)Cc1ccc2c(c1)OCCO2 | -1.0% | -4.7% | 2.4% | -0.3% | 1.2% | 1.5%
O=C(OCc1nnc(-c2ccccc2)o1)c1cn(-c2ccccc2)nc1-c1ccccc1 | 10µM* | 0.2% | nt | 3.1% | 19.7% | -9.3%
N#CC1=C2SCC(O)(c3ccccc3)N2C(=O)CC1c1ccccc1F (centres undefined) | -2.0% | -6.0% | 10.3µM* | 5.1% | -3.5% | 15.3%
CCC(=O)N1CCc2cc(Br)cc(S(=O)(=O)CCC(=O)N3CCN(c4cccc(C)c4)C(C)C3)c21 (centres undefined) | 1.4% | ? | 4.7%[9.27 µM] | 7.1% | nt | 15.4%
CCC(=O)N1CCc2cc(S(=O)(=O)CCC(=O)N3CCN(c4cccc(C)c4)C(C)C3)ccc21 (centres undefined) | -1.2% | 6.4% | 20.6µM* | 3.0% | nt | 10.9%
COc1ccc(-c2ccc(-c3nnn(CC(=O)N4CCOCC4)n3)cc2)cc1 | 15.8µM* | 5.0% | 2.4% | 0.6% | -0.4% | -41.2%
COc1cc(-c2nnn(CC(=O)N3CCOCC3)n2)cc(OC)c1OC | 1.1% | -1.5% | 17.7% | -0.2% | 0.1% | 0.8%
Cc1ccc(NC(=O)c2c(C)nc3sc(C(=O)Nc4ccc(F)cc4)c(N)c3c2-c2ccc(C)o2)c(C)c1 | 1.2% | 1.2% | 1.0% | -0.2% | nt | 1.2%
O=C(NC1CCCCC1)c1cccc(N2C(=O)CCC2=O)c1 | nt | 1.3% | -6.4% | -0.4% | 1.7% | nt
OC1CCCN(Cc2c3ccccc3cc3ccccc23)C1 (centres undefined) | 20µM* | 0.3% | ? | 7.3% | 2.1% | 13.8%

The closing four records of the part above are carried over, then new ones follow:
SMILES | ClpP mod | A549 viability | Nrf2 inh | Nrf2 ARE act | TCR act | miR-21 reporter
COc1cc(-c2nnn(CC(=O)N3CCOCC3)n2)cc(OC)c1OC | 1.1% | -1.5% | 17.7% | -0.2% | 0.1% | 0.8%
Cc1ccc(NC(=O)c2c(C)nc3sc(C(=O)Nc4ccc(F)cc4)c(N)c3c2-c2ccc(C)o2)c(C)c1 | 1.2% | 1.2% | 1.0% | -0.2% | nt | 1.2%
O=C(NC1CCCCC1)c1cccc(N2C(=O)CCC2=O)c1 | nt | 1.3% | -6.4% | -0.4% | 1.7% | nt
OC1CCCN(Cc2c3ccccc3cc3ccccc23)C1 (centres undefined) | 20µM* | 0.3% | ? | 7.3% | 2.1% | 13.8%
CCOc1ccc(CN(C)C(C)C(=O)NCCc2ccc(F)cc2)cc1 (centres undefined) | nt | -9.1% | 3.4% | 0.4% | -2.3% | -1.3%
Cc1ccccc1-c1csc2ncnc(Sc3nnnn3C)c12 | nt | 0.5% | -10.4% | nt | nt | nt
Cn1nnnc1Sc1ncnc2scc(-c3cccc4ccccc34)c12 | nt | -21.5% | ? | 7.08µM* | -4.6% | nt
Cn1nnnc1Sc1ncnc2scc(-c3ccc(F)cc3)c12 | -5.1% | ? | 23.1µM* | ? | 1.1% | ?
Cn1nnnc1Sc1ncnc2scc(-c3ccccc3Br)c12 | nt | -2.5% | 20.6µM* | ? | -1.0% | nt
Cn1nnnc1Sc1ncnc2scc(-c3cccc(C#N)c3)c12 | nt | ? | 16.4µM* | nt | nt | nt
COc1cccc(CNCCSc2nnnn2C)c1OCc1ccccc1 | -4.2% | -4.2% | -8.4% | 2.1% | nt | 8.2%
CCOC(=O)C(=O)NCC(c1cccnc1)N1CCN(c2ccccc2)CC1 (centres undefined) | -0.7% | -14.5% | ? | 0.2% | nt | -5.1%
CCOC(=O)c1[nH]nc(-c2c(O)cc(C)cc2O)c1-c1csc(C)n1 | 1.4% | -0.2% | 9.3% | 0.2% | 0.2% | -6.1%
CCCc1cc(-c2n[nH]c(C(=O)OCC)c2-c2cscn2)c(O)cc1O | 1.9% | -11.5% | 29.1µM* | -1.1% | 4.4% | 18.0%
CCNc1ccc2noc3c2c1C(=O)c1ccccc1-3 | 0.9% | ? | 20.6µM* | 4.6% | 4.0%[46.1 µM] | -0.4%
CC1(c2ccc(OCC#N)cc2)C=C(c2ccc(OCC#N)cc2)n2nc(C(F)(F)F)nc2N1 (centres undefined) | -5.7% | ? | 23.1µM* | 10.9% | 0.6%[46.1 µM] | ?
Cc1cc(N)n2ncc(-c3ccc(F)cc3)c2n1 | -15.2% | -4.1% | ? | 6.8% | 9.8% | -79.1%
Cc1cc(N)n2ncc(-c3ccc(Cl)cc3)c2n1 | 22.4µM* | -8.5% | ? | 19.3% | -40.4% | -56.0%
Cc1ccc(S(=O)(=O)N(CC(=O)NCCc2ccc(Cl)cc2)c2ccccc2C)cc1 | -1.8% | ? | 25.9µM* | -0.9% | nt | ?
CCOc1ccccc1N(CC(=O)NCCc1ccc(OC)cc1)S(=O)(=O)c1ccc(C)cc1 | -2.8% | nt | nt | 0.6% | nt | nt

Compound activity deposited in PubChem BioAssay by National Center for Advancing Translational Sciences (NCATS).
